Assays:
[1] = system: mouse Heps (mHeps); assay: Endocytosis competition of FITC-fNLPNTL uptake, fluorescence microscopy; settings: 20 μg/ml, 60 min at 37°C, serum-free medium
[2] = system: mouse LSECs (mLSECs); assay: as above; type: cell-based; settings: 20 μg/ml, 60 min at 37°C, serum-free medium
From the text: Fig 7 Competitive effect of FSA on FITC-fNLPNTL uptake by human and murine LSECs. Primary cultures of hLSECs (A) and mLSECs (B) were established on Permanox chamber slides coated with human fibronectin. […] Uptake of FITC-fNLPNTL was inhibited by the presence of FSA in hLSECs (C) to a higher extent than seen in mLSECs (D).

Fluorescein-isothiocyanate- N-Formyl-Nle-Leu-Phe-Nle-Tyr-Lys [FITC-fNLPNTL, fluorescein isothiocyanate derivative of fNLPNTL from Thermo Scientific]
uptake in isolated liver parenchymal cells (hepatocytes) [1]: high uptake
uptake in isolated LSECs [2]: high uptake
